Results as given in the Kinase Knowledgebase extract (Sharma et al. 2016).

Molecular target: CDK2 (UniProt P24941)
Experiment: Enzyme Assay

IC50: > 5 µM
Compound: Cc1cc(=O)n(C2CCCC2)c2nc(Nc3ccc(N4CCNCC4)cc3)ncc12
